Data on 3 molecules can be found in patent US6821738B2, “Broad spectrum bio-detection of nerve agents, organophosphates, and other chemical warfare agents” (dated 2004).

Chains of the proteins cited; added tags and fusions are not shown. Residues count along the entry.
UniProt P22303, 32-614 limits assumed: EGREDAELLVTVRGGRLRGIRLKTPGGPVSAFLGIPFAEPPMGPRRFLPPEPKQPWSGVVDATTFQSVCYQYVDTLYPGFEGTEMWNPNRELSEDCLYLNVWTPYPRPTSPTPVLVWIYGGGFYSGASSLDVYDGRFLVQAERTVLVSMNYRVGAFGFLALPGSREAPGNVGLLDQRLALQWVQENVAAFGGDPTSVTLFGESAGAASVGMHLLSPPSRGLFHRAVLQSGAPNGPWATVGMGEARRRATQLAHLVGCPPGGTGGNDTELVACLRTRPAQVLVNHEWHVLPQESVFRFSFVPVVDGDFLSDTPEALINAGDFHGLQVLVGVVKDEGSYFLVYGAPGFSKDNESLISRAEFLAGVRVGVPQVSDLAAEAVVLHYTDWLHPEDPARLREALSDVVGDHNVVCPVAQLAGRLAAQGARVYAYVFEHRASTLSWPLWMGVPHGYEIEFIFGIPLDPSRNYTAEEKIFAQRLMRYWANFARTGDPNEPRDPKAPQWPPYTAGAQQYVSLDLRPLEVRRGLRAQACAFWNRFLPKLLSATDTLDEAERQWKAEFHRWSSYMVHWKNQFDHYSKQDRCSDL

One test has as its target TPPS1-AChE complex (Homo sapiens, UniProt P22303). Briefly: Alteration of the TPPS1-AChE complex spectrum (442 nm region) by added compounds. To be noted: compounds binding at the active site vs elsewhere.
Another test concerns the target AChE (Homo sapiens, UniProt P22303). The experiment in a line: Inhibition of AChE by TPPS1.

In the case of `CCN(CC)CCOC(=O)c1ccc(N)cc1`, the “spectrum of the TPPS1-AChE complex altered in the 442 nm region by addition of compound” value at TPPS1-AChE complex is reported as “not”.
Same read-out and setting: as for `CCCCNc1ccc(C(=O)OCCN(C)C)cc1`, the entry is “altered”.
In the case of monosulfonate tetraphenyl porphyrin, the “inhibition of AChE” value on AChE was “effective competitive inhibitor”.
